Article PMC9388496 (Communications Biology, 2022)

Target: T1, tumor necrosis factor (TNF)-α (Homo sapiens (; assumed), UniProt P01375)
T1 construct: TNF-α; also called TNF-a; cognate Ag; source: bought: Peprotech
Assay: SPR; VEGF-165 or TNF-α immobilised (~300 RU) on CM5 by amine coupling; 100 nM ABT injected at pH 5.5 (67 mM phosphate, 0.15 M NaCl, 0.005% Tween20), 20 μl/min
Details: both partners purified

B1: infliximab (Remicade) (antibody, V domains shown)
VH: EVKLEESGGGLVQPGGSMKLSCVASGFIFSNHWMNWVRQSPEKGLEWVAEIRSKSINSATHYAESVKGRFTISRDDSKSAVYLQMTDLRTEDTGVYYCSRNYYGSTYDYWGQGTTLTVSS
VL: DILLTQSPAILSVSPGERVSFSCRASQFVGSSIHWYQQRTNGSPRLLIKYASESMSGIPSRFSGSGSGTDFTLSINTVESEDIADYYCQQSHSWPFTFGSGTNLEVK
notes: murine VH; human IgG1 heavy chain constant region; light chain with murine VL; Chimeric IgG1; www.drugbank.com is named among the repositories used; also called anti-TNF-α IgG1; source: bought: from the pharmacy; buffer-exchanged into PBS and run on SEC
Q: Does B1 bind?
A: binds
